Earlier results, collected in paper PMC3089658.

Sequences of proteins named here, by UniProt entry; tags and fusion partners are left off. Residues count along the entry.
UniProt P01589, 22-240, chain 1 of 3: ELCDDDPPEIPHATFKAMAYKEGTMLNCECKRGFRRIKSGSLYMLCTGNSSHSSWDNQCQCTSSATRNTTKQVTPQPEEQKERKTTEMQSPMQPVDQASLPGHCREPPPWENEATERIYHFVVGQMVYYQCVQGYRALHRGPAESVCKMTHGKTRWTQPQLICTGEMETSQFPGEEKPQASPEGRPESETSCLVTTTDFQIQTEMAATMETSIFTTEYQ
UniProt P60568, 21-153: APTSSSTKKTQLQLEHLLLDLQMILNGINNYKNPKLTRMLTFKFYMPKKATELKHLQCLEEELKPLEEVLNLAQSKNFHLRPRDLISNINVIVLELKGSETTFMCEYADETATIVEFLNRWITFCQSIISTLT

Target: high affinity IL-2R (Homo sapiens) (UniProt P01589)

IL-2 (from UniProt P60568)
Kd: 0.01 nM
